{"source": "paper PMC9686514", "about": "“Design of Antimicrobial Peptides with Cell-Selective Activity and Membrane-Acting Mechanism against Drug-Resistant Bacteria” (Antibiotics, 2022)", "type_in_all_cases": "cell-based", "details_in_all_cases": "5 × 10^5 cfu/mL, 37 °C, 24 h", "key": {"[1]": {"tested_on": "Bacillus subtilis (KCTC 1998)", "source_text": "(§1) Pseudomonas aeruginosa (ATCC 15692), Escherichia coli (ATCC 25922), and Staphylococcus aureus (ATCC 25923) were purchased from the American Type Culture Collection. Listeria monocytogens (KCTC 3710) and Bacillus subtilis (KCTC 1998) were from the Korean Collection for Type Cultures. Drug-resistant S. aureus (DRSa-001~005) and P. aeruginosa (DRPa-001~005) were collected from Paik Hospital of Inje University in Busan, South Korea. Pre-cultured bacteria grown to mid-log phase were suspended in 10 mM sodium phosphate (SP, pH 7.2) or phosphate-buffered saline (PBS, pH 7.2) with 10% culture media. Bacterial suspensions were added to each peptide dilute (final 5 × 10^5 colony-forming units (cfu)/mL), after which the plates were incubated at 37 °C for 24 h. The turbidity of each well was measured at the absorbance at 600 nm and the morphology of bacterial growth was observed under light microscopy. MICs (Minimum inhibitory concentrations) were defined as the lowest concentration of peptide that expresses the complete inhibition of bacterial growth."}, "[2]": {"tested_on": "Escherichia coli (ATCC 25922)", "source_text": "as §1"}, "[3]": {"tested_on": "Pseudomonas aeruginosa (ATCC 15692)", "source_text": "as §1"}, "[4]": {"tested_on": "Staphylococcus aureus (ATCC 25923)", "source_text": "as §1"}, "[5]": {"details": "10 mM sodium phosphate (pH 7.2) with 10% culture media"}, "[6]": {"details": "phosphate-buffered saline (PBS, pH 7.2) with 10% culture media"}}}
{"compound": "CC[C@H](C)[C@H](NC(=O)CN)C(=O)NCC(=O)N[C@@H](C)C(=O)N[C@H](C(=O)N[C@@H](CC(C)C)C(=O)N[C@@H](CCCCN)C(=O)N[C@H](C(=O)N[C@@H](CC(C)C)C(=O)N[C@H](C(=O)N[C@H](C(=O)NCC(=O)N[C@@H](CC(C)C)C(=O)N1CCC[C@H]1C(=O)N[C@@H](C)C(=O)N[C@@H](CC(C)C)C(=O)N[C@H](C(=O)N[C@@H](CO)C(=O)N[C@@H](Cc1c[nH]c2ccccc12)C(=O)N[C@H](C(=O)N[C@@H](CCCCN)C(=O)N[C@@H](CCCNC(=N)N)C(=O)N[C@@H](CCCCN)C(=O)N[C@@H](CCCNC(=N)N)C(=O)N[C@@H](CCC(N)=O)C(=O)N[C@@H](CCC(N)=O)C(N)=O)[C@@H](C)CC)[C@@H](C)CC)[C@@H](C)O)[C@@H](C)O)C(C)C)C(C)C", "note": "[Melittin, reference compound]", "values": [{"measurement": "MIC, Bs", "setting": "[1]; [5]", "value": "2(2) μM"}, {"measurement": "MIC, Bs (numbers in parentheses)", "setting": "[1]; [6]", "value": "2(2) μM"}, {"measurement": "MIC, Ec", "setting": "[2]; [5]", "value": "2(2) μM"}, {"measurement": "MIC, Ec (numbers in parentheses)", "setting": "[2]; [6]", "value": "2(2) μM"}, {"measurement": "MIC, Pa", "setting": "[3]; [5]", "value": 2, "unit": "µM"}, {"measurement": "MIC, Pa (numbers in parentheses)", "setting": "[3]; [6]", "value": 16, "unit": "µM"}, {"measurement": "MIC, Sa", "setting": "[4]; [5]", "value": "2(2) μM"}, {"measurement": "MIC, Sa (numbers in parentheses)", "setting": "[4]; [6]", "value": "2(2) μM"}]}
